Experimental data from patent US20220153864A1.

Legend:
[1] = biological target: 32 different targets including GPC3, GPC5, and other TNF receptor proteins; assay: off-target ELISA on 32 coated targets, binder at 10 nM, signals normalized to control antibody SEQ ID NOs: 106 and 107 and summed
[2] = biological target: 32 different targets including GPC3, GPC5, and other TNF receptor proteins; assay: off-target ELISA on 32 coated targets, binder at 100 nM, signals normalized to control antibody SEQ ID NOs: 106 and 107 and summed
[3] = biological target: 32 different targets including GPC3, GPC5, and other TNF receptor proteins; assay: off-target ELISA on 32 coated targets, sum of the ratios at 100 nM and 10 nM

B1: fusion protein SEQ ID NOs: 87 and 82 (bispecific antibody, human IgG4 S228P, kappa, F234A L235A)
heavy: QVQLVQSGAEVKKPGASVKVSCKASGYTFTDYEMHWVRQAPGQGLEWMGALDPKTGDTAYSQKFKGRVTLTADKSTSTAYMELSSLTSEDTAVYYCTRFYSYTYWGQGTLVTLVSSASTKGPSVFPLAPCSRSTSESTAALGCLVKDYFPEPVTVSWNSGALTSGVHTFPAVLQSSGLYSLSSVVTVPSSSLGTKTYTCNVDHKPSNTKVDKRVESKYGPPCPPCPAPEAAGGPSVFLFPPKPKDTLMISRTPEVTCVVVDVSQEDPEVQFNWYVDGVEVHNAKTKPREEQFNSTYRVVSVLTVLHQDWLNGKEYKCKVSNKGLPSSIEKTISKAKGQPREPQVYTLPPSQEEMTKNQVSLTCLVKGFYPSDIAVEWESNGQPENNYKTTPPVLDSDGSFFLYSRLTVDKSRWQEGNVFSCSVMHEALHNHYTQKSLSLSLGGGGGSGGGGSGGGGSQDSTSDLIPAPPLSKVPLQQNFQDNQFHGKWYVVGQAGNIRLREDKDPIKMMATIYELKEDKSYDVTMVKFDDKKCMYDIWTFVPGSQPGEFTLGKIKSFPGHTSSLVRVVSTNYNQHAMVFFKFVFQNREEFYITLYGRTKELTSELKENFIRFSKSLGLPENHIVFPVPIDQCIDG
light: DVVMTQSPLSLPVTPGEPASISCRSSQSLVHSNRNTYLHWYLQKPGQSPQLLIYKVSNRFSGVPDRFSGSGSGTDFTLKISRVEAEDVGVYYCSQNTHVPPTFGQGTKLEIKRTVAAPSVFIFPPSDEQLKSGTASVVCLLNNFYPREAKVQWKVDNALQSGNSQESVTEQDSKDSTYSLSSTLTLSKADYEKHKVYACEVTHQGLSSPVTKSFNRGEC
cumulative binding ratio [1]: 45
cumulative binding ratio [2]: 64
sum of cumulative binding ratios [3]: 109
